Laboratory results: patent US20150368338A1 (Janssen / Centocor, published 2015)

B1: IFWM3341 (antibody, V domains shown)
VH: EVQLVQSGAEVKKPGESLKISCKGSGYSFTSYWIGWVRQMPGKGLEWMGIIDPSDSDTAYSPSFQGQVTISADKSISTAYLQWSSLKASDTAMYYCARHPGLNWAPDFDYWGQGTLVTVSS
VL: DIQMTQSPSSLSASVGDRVTITCRASQSINRFLNWYQQKPGKAPKLLIYAASSLQSGVPSRFSGSGSGTDFTLTISSLQPEDFATYYCQQAIDLPFTFGQGTKVEIK
notes: VH IFWH624, VL IFWL991; converted mAb; also called IFWB3076
B2: IFWM3342 (antibody, V domains shown)
VH: EVQLVQSGAEVKKPGESLKISCKGSGYSFTSYWIGWVRQMPGKGLEWMGIIDPSDSDTAYSPSFQGQVTISADKSISTAYLQWSSLKASDTAMYYCARHPGLNWAPDFDYWGQGTLVTVSS
VL: DIQMTQSPSSLSASVGDRVTITCRASQSIGSFLNWYQQKPGKAPKLLIYFASSLQSGVPSRFSGSGSGTDFTLTISSLQPEDFATYYCQQSYSIPITFGQGTKVEIK
notes: VH IFWH624, VL IFWL992; converted mAb; also called IFWB3077
B3: IFWM3343 (antibody, V domains shown)
VH: EVQLVQSGAEVKKPGESLKISCKGSGYSFTSYWIGWVRQMPGKGLEWMGIIDPSDSDTAYSPSFQGQVTISADKSISTAYLQWSSLKASDTAMYYCARHPGLNWAPDFDYWGQGTLVTVSS
VL: DIQMTQSPSSLSASVGDRVTITCRASQSIGSALNWYQQKPGKAPKLLIYFASSLQSGVPSRFSGSGSGTDFTLTISSLQPEDFATYYCQQSYDFPLTFGQGTKVEIK
notes: VH IFWH624, VL IFWL997; converted mAb; also called IFWB3078
B4: IFWM3344 (antibody, V domains shown)
VH: EVQLVQSGAEVKKPGESLKISCKGSGYSFTSYWIGWVRQMPGKGLEWMGIIDPSDSDTAYSPSFQGQVTISADKSISTAYLQWSSLKASDTAMYYCARHPGLNWAPDFDYWGQGTLVTVSS
VL: DIQMTQSPSSLSASVGDRVTITCRASQSISKFLNWYQQKPGKAPKLLIYFASSLQSGVPSRFSGSGSGTDFTLTISSLQPEDFATYYCQQSNTLPFTFGQGTKVEIK
notes: VH IFWH624, VL IFWL998; converted mAb; also called IFWB3079
B5: IFWM3345 (antibody, V domains shown)
VH: EVQLVQSGAEVKKPGESLKISCKGSGYSFTSYWIGWVRQMPGKGLEWMGIIDPSDSDTAYSPSFQGQVTISADKSISTAYLQWSSLKASDTAMYYCARHPGLNWAPDFDYWGQGTLVTVSS
VL: DIQMTQSPSSLSASVGDRVTITCRASQSITNFLNWYQQKPGKAPKLLIYFASSLQSGVPSRFSGSGSGTDFTLTISSLQPEDFATYYCQQSLDFPLTFGQGTKVEIK
notes: VH IFWH624, VL IFWL1000; converted mAb; also called IFWB3080
B6: IFWM3346 (antibody, V domains shown)
VH: EVQLVQSGAEVKKPGESLKISCKGSGYSFTSYWIGWVRQMPGKGLEWMGIIDPSDSDTAYSPSFQGQVTISADKSISTAYLQWSSLKASDTAMYYCARHPGLNWAPDFDYWGQGTLVTVSS
VL: DIQMTQSPSSLSASVGDRVTITCRASQSIGDFLNWYQQKPGKAPKLLIYFASSLQSGVPSRFSGSGSGTDFTLTISSLQPEDFATYYCQQALDFPLTFGQGTKVEIK
notes: VH IFWH624, VL IFWL1001; converted mAb; also called IFWB3081
B7: IFWM3347 (antibody, V domains shown)
VH: EVQLVQSGAEVKKPGESLKISCKGSGYSFTSYWIGWVRQMPGKGLEWMGIIDPSDSDTAYSPSFQGQVTISADKSISTAYLQWSSLKASDTAMYYCARHPGLNWAPDFDYWGQGTLVTVSS
VL: DIQMTQSPSSLSASVGDRVTITCRASQSIAEFLNWYQQKPGKAPKLLIYFASSLQSGVPSRFSGSGSGTDFTLTISSLQPEDFATYYCQQSIDFPLTFGQGTKVEIK
notes: VH IFWH624, VL IFWL1004; converted mAb; also called IFWB3082
B8: IFWM3348 (antibody, V domains shown)
VH: EVQLVQSGAEVKKPGESLKISCKGSGYSFTSYWIGWVRQMPGKGLEWMGIIDPSDSDTAYSPSFQGQVTISADKSISTAYLQWSSLKASDTAMYYCARHPGLNWAPDFDYWGQGTLVTVSS
VL: DIQMTQSPSSLSASVGDRVTITCRASQSIGGFLNWYQQKPGKAPKLLIYFASSLQSGVPSRFSGSGSGTDFTLTISSLQPEDFATYYCQQSYSLPITFGQGTKVEIK
notes: VH IFWH624, VL IFWL1006; converted mAb; also called IFWB3083
B9: IFWM3349 (antibody, V domains shown)
VH: EVQLVQSGAEVKKPGESLKISCKGSGYSFTSYWIGWVRQMPGKGLEWMGIIDPSDSDTAYSPSFQGQVTISADKSISTAYLQWSSLKASDTAMYYCARHPGLNWAPDFDYWGQGTLVTVSS
VL: DIQMTQSPSSLSASVGDRVTITCRASQSIGKSLNWYQQKPGKAPKLLIYFASSLQSGVPSRFSGSGSGTDFTLTISSLQPEDFATYYCQQSYDFPLTFGQGTKVEIK
notes: VH IFWH624, VL IFWL1007; converted mAb; also called IFWB3084
B10: IFWM3350 (antibody, V domains shown)
VH: EVQLVQSGAEVKKPGESLKISCKGSGYSFTSYWIGWVRQMPGKGLEWMGIIDPSDSDTAYSPSFQGQVTISADKSISTAYLQWSSLKASDTAMYYCARHPGLNWAPDFDYWGQGTLVTVSS
VL: DIQMTQSPSSLSASVGDRVTITCRASQSIDDFLNWYQQKPGKAPKLLIYFASSLQSGVPSRFSGSGSGTDFTLTISSLQPEDFATYYCQQSHTLPLTFGQGTKVEIK
notes: VH IFWH624, VL IFWL1009; converted mAb; also called IFWB3085
B11: IFWM3351 (antibody, V domains shown)
VH: EVQLVQSGAEVKKPGESLKISCKGSGYSFTSYWIGWVRQMPGKGLEWMGIIDPSDSDTAYSPSFQGQVTISADKSISTAYLQWSSLKASDTAMYYCARHPGLNWAPDFDYWGQGTLVTVSS
VL: DIQMTQSPSSLSASVGDRVTITCRASQSIDGALNWYQQKPGKAPKLLIYFASSLQSGVPSRFSGSGSGTDFTLTISSLQPEDFATYYCQQSFDFPLTFGQGTKVEIK
notes: VH IFWH624, VL IFWL1010; converted mAb; also called IFWB3086
B12: IFWM3352 (antibody, V domains shown)
VH: EVQLVQSGAEVKKPGESLKISCKGSGYSFTSYWIGWVRQMPGKGLEWMGIIDPSDSDTAYSPSFQGQVTISADKSISTAYLQWSSLKASDTAMYYCARHPGLNWAPDFDYWGQGTLVTVSS
VL: DIQMTQSPSSLSASVGDRVTITCRASQSINNFLNWYQQKPGKAPKLLIYFASSLQSGVPSRFSGSGSGTDFTLTISSLQPEDFATYYCQQSFNLPITFGQGTKVEIK
notes: VH IFWH624, VL IFWL1013; converted mAb; also called IFWB3087
B13: IFWM3353 (antibody, V domains shown)
VH: EVQLVQSGAEVKKPGESLKISCKGSGYSFTSYWIGWVRQMPGKGLEWMGIIDPSDSDTAYSPSFQGQVTISADKSISTAYLQWSSLKASDTAMYYCARHPGLNWAPDFDYWGQGTLVTVSS
VL: DIQMTQSPSSLSASVGDRVTITCRASQSIDRALNWYQQKPGKAPKLLIYFASSLQSGVPSRFSGSGSGTDFTLTISSLQPEDFATYYCQQSFDFPLTFGQGTKVEIK
notes: VH IFWH624, VL IFWL1014; converted mAb; also called IFWB3088
B14: IFWM3354 (antibody, V domains shown)
VH: EVQLVQSGAEVKKPGESLKISCKGSGYSFTSYWIGWVRQMPGKGLEWMGIIDPSDSDTAYSPSFQGQVTISADKSISTAYLQWSSLKASDTAMYYCARHPGLNWAPDFDYWGQGTLVTVSS
VL: DIQMTQSPSSLSASVGDRVTITCRASQSITSSLNWYQQKPGKAPKLLIYFASSLQSGVPSRFSGSGSGTDFTLTISSLQPEDFATYYCQQSFDLPLTFGQGTKVEIK
notes: VH IFWH624, VL IFWL1017; converted mAb; also called IFWB3089
B15: IFWM3357 (antibody, V domains shown)
VH: EVQLVQSGAEVKKPGESLKISCKGSGYSFTSYWIGWVRQMPGKGLEWMGIIDPSDSDTAYSPSFQGQVTISADKSISTAYLQWSSLKASDTAMYYCARHPGLNWAPDFDYWGQGTLVTVSS
VL: DIQMTQSPSSLSASVGDRVTITCRASQSISEYLNWYQQKPGKAPKLLIYFASSLQSGVPSRFSGSGSGTDFTLTISSLQPEDFATYYCQQSHSLPITFGQGTKVEIK
notes: VH IFWH624, VL IFWL1038; converted mAb; also called IFWB3092
B16: IFWM3358 (antibody, V domains shown)
VH: EVQLVQSGAEVKKPGESLKISCKGSGYSFTSYWIGWVRQMPGKGLEWMGIIDPSDSDTAYSPSFQGQVTISADKSISTAYLQWSSLKASDTAMYYCARHPGLNWAPDFDYWGQGTLVTVSS
VL: DIQMTQSPSSLSASVGDRVTITCRASQSITGFLNWYQQKPGKAPKLLIYAASSLQSGVPSRFSGSGSGTDFTLTISSLQPEDFATYYCQQSHDFPLTFGQGTKVEIK
notes: VH IFWH624, VL IFWL1041; converted mAb; also called IFWB3093
B17: IFWM3360 (antibody, V domains shown)
VH: EVQLVQSGAEVKKPGESLKISCKGSGYSFTSYWIGWVRQMPGKGLEWMGIIDPSDSDTAYSPSFQGQVTISADKSISTAYLQWSSLKASDTAMYYCARHPGLNWAPDFDYWGQGTLVTVSS
VL: DIQMTQSPSSLSASVGDRVTITCRASQSIDGALNWYQQKPGKAPKLLIYFASSLQSGVPSRFSGSGSGTDFTLTISSLQPEDFATYYCQQAYDFPLTFGQGTKVEIK
notes: VH IFWH624, VL IFWL1048; converted mAb; also called IFWB3095
B18: IFWM3361 (antibody, V domains shown)
VH: EVQLVQSGAEVKKPGESLKISCKGSGYSFTSYWIGWVRQMPGKGLEWMGIIDPSDSDTAYSPSFQGQVTISADKSISTAYLQWSSLKASDTAMYYCARHPGLNWAPDFDYWGQGTLVTVSS
VL: DIQMTQSPSSLSASVGDRVTITCRASQSIADFLNWYQQKPGKAPKLLIYFASSLQSGVPSRFSGSGSGTDFTLTISSLQPEDFATYYCQQSHSFPLTFGQGTKVEIK
notes: VH IFWH624, VL IFWL1051; converted mAb; also called IFWB3096
B19: IFWM3364 (antibody, V domains shown)
VH: EVQLVQSGAEVKKPGESLKISCKGSGYSFTSYWIGWVRQMPGKGLEWMGIIDPSDSDTAYSPSFQGQVTISADKSISTAYLQWSSLKASDTAMYYCARHPGLNWAPDFDYWGQGTLVTVSS
VL: DIQMTQSPSSLSASVGDRVTITCRASQSIRNSLNWYQQKPGKAPKLLIKWASSLQSGVPSRFSGSGSGTDFTLTISSLQPEDFATYYCQQLYDWPLTFGQGTKVEIK
notes: VH IFWH624, VL IFWL1060; converted mAb; also called IFWB3099
B20: IFWM3329 (antibody, V domains shown)
VH: EVQLVQSGAEVKKPGESLKISCKGSGYSFTSYWIGWVRQMPGKGLEWMGIIDPSDSDTRYSPSFQGQVTISADKSISTAYLQWSSLKASDTAMYYCARHPGLNWAPDFDYWGQGTLVTVSS
VL: DIQMTQSPSSLSASVGDRVTITCRASQSIRNNNLNWYQQKPGKAPKLLIHWASSLQSGVPSRFSGSGSGTDFTLTISSLQPEDFATYYCQQGYDTPFTFGQGTKVEIK
notes: VH IFWH591, VL IFWL1067; converted mAb; also called IFWB3064
B21: IFWM3327 (antibody, V domains shown)
VH: EVQLVQSGAEVKKPGESLKISCKGSGYSFTSYWIGWVRQMPGKGLEWMGIIDPSDSDTRYSPSFQGQVTISADKSISTAYLQWSSLKASDTAMYYCARHPGLNWAPDFDYWGQGTLVTVSS
VL: DIQMTQSPSSLSASVGDRVTITCRASQSIANNNLNWYQQKPGKAPKLLIHWASSLQSGVPSRFSGSGSGTDFTLTISSLQPEDFATYYCQQGYDTPFTFGQGTKVEIK
notes: VH IFWH591, VL IFWL1063; converted mAb; also called IFWB3062
B22: IFWM3331 (antibody, V domains shown)
VH: EVQLVQSGAEVKKPGESLKISCKGSGYSFTSYWIGWVRQMPGKGLEWMGIIDPSDSDTRYSPSFQGQVTISADKSISTAYLQWSSLKASDTAMYYCARHPGLNWAPDFDYWGQGTLVTVSS
VL: DIQMTQSPSSLSASVGDRVTITCRASQSIDNSYLNWYQQKPGKAPKLLIYGASSLQSGVPSRFSGSGSGTDFTLTISSLQPEDFATYYCQQGWDWPLTFGQGTKVEIK
notes: VH IFWH591, VL IFWL1073; converted mAb; also called IFWB3066

Molecular target: T1, IFN-αB2 (human, UniProt P32881 24-189)
T1 construct: also called IFN-α8; IFN alpha B2
Experiment: ProteOn, one antigen concentration

Kd [nM]	Binder
0.007	B1
0.043	B2
0.06	B3
0.08	B4
0.009	B5
0.044	B6
0.041	B7
0.058	B8
0.008	B9
0.033	B10
0.01	B11
0.048	B12
0.006	B13
0.023	B14
0.008	B15
0.062	B16
0.035	B17
0.048	B18
0.039	B19
0.095	B20
0.06	B21
0.021	B22
